{
  "sequences": {"note": "The chains behind the UniProt entries cited, without tags or fusion partners. Residues count along the entry.", "UniProt Q96PU5, 496-539": "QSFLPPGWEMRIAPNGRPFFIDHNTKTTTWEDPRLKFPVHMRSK"},
  "source": "paper PMC5209733",
  "about": "“U24 from Roseolovirus interacts strongly with Nedd4 WW Domains” (Scientific Reports, 2017)",
  "molecular_target": "T1, hNedd4L-WW3* domain (third WW domain of human Nedd4-like protein, GST tag removed) (human, UniProt Q96PU5 496-539)",
  "T1 construct": "Nedd4-like protein (Nedd4L), human, cDNA clone KIAA0439, third WW domain (WW3*); Thrombin cleavage may leave vector residues at the N-terminus (surmised); source: E. coli BL21(DE3), purified (Glutathione Sepharose 4B, thrombin cleavage on the resin); 15N-labelled in M9 medium for NMR; not shown: GST, N-terminal, cleaved",
  "assay": "ITC; peptide titrated into the cleaved WW domain (40 to 150 uM) in the cell; 10 mM sodium phosphate, pH 7.4, 25 °C; MicroCal VP-ITC; bimolecular interaction model; three runs (further runs with 100 mM and 500 mM NaCl told in words only)",
  "details": "both partners purified",
  "data": [
    {"binder": "MDPPRTPPPSYSEVL (phosphoryl threonine at Thr6, U24 protein of Human Herpes Virus type 6A (HHV-6A), 15-mer of the N-terminus with phospho-threonine at Thr6; source: purified peptide)", "note": "[pU24-6A peptide (15-mer, N-terminus of U24 from HHV-6A phosphorylated at Thr6)]", "values": [
      {"measurement": "Kd", "value": 760, "unit": "nM"}
    ]}
  ]
}
